Values of other authors, collected in publication PMC4105021 (ChemMedChem, 2014).

Target: T1, human TLR8 (Homo sapiens, UniProt Q9NR97)
T1 sequence (Q9NR97 27-1041): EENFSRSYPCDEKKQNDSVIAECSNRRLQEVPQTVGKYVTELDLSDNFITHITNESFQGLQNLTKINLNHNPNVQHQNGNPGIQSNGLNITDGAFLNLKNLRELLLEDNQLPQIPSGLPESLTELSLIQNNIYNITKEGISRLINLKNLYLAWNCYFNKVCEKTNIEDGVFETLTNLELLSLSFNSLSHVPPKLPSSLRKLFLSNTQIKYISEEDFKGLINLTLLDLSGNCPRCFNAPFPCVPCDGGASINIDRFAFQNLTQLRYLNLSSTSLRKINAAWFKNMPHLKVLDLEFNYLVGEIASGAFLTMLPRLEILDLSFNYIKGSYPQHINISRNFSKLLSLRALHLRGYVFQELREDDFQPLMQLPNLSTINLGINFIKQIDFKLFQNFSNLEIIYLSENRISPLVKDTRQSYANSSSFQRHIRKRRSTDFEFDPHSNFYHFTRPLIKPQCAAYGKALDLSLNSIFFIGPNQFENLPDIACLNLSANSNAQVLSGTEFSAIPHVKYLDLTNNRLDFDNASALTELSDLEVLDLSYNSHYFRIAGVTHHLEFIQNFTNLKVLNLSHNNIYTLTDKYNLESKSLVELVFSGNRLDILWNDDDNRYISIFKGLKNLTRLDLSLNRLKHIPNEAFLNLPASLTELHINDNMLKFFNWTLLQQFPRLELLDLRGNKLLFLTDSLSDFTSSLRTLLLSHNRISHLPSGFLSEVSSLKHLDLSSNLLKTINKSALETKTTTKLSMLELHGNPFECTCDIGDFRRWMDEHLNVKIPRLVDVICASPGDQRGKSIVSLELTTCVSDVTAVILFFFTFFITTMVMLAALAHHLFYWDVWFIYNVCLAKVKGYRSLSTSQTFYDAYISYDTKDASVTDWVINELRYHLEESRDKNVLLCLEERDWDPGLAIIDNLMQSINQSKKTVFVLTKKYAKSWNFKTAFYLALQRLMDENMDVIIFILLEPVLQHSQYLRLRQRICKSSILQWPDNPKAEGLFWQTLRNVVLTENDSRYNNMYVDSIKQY
Settings: IL-12 and IL-18 induction, without IFN-α inducing properties; ref 8a; cited from earlier work

CCCCc1cc2c(o1)c(N)nc1ccccc12 [Compound 3, 2-butylfuro[2,3-c]quinolin-4-amine]
TLR8 agonistic activity profile: pure TLR8 agonistic activity
